Results: patent EP4556465A1, “NOVEL BICYCLIC PD-L1 INHIBITORS, PREPARATION METHODS THEREFOR AND MEDICINAL USES THEREOF” (priority 2022, dated 2024)

System: breast cancer tumor cells 4T1
Conditions: 10 mg/kg, i.g., QD×21 days
Method: Subsequently, each group of animals was dosed, and the day of first administration was defined as test day 1; • Administration frequency: once a day; • General state observations: observation time and frequency: once a day; observation indicators or content: including, but not limited to, local administration of the animals, appearance signs, general behavioral activity, mental status, death, and other abnormal manifestations. The animals were euthanized at the end of the test. • Calculation of tumor volume: V=1/2×long diameter×short diameter^2 (mm^3).

Which “general state of tumor-bearing animals during administration (water and food intake, activity, body weight, toxicity)” value does the source give for `O=C(O)CN1CCc2nc(OCc3cccc(-c4ccccc4F)c3Cl)ccc2C1` [I-D-26, 2-(2-((2-chloro-2'-fluoro-[1,1'-biphenyl]-3-yl)methoxy)-7,8-dihydro-1,6-naphthyridin-6(5H)-yl)acetic acid] here?
The value was “normal water intake and food intake, normal activity, normal body weight, and no toxicity manifestations”.
